Test results: paper PMC13434705, “TRIM21-mediated ubiquitination of PARP1 regulated by the PI3K/AKT-STAT5A axis suppresses small cell lung cancer” (Nature Communications, 2026)

Target: T1, His-PARP1, recombinant full-length (pET-28a-PARP1(FL)) (human)
T1 construct: PARP1, human, full length (FL), pET-28a plasmid, a gift from Caihong Yun; The His6 tag is followed by a TEV cleavage site (ENLYFQG); His tag kept in the His pull-down; also called recombinant PARP1; source: E. coli BL21(DE3), purified (Ni2+-agarose); not shown: His6, N-terminal, kept
Assay: pull-down; GST pull-down: 25 μg GST-TRIM21 on GST-tag resin, 25 μg recombinant PARP1, 2 h at 4 °C; Tris-HCl 50 mM, NaCl 200 mM, EDTA 1 mM, NP-40 1%, DTT 1 mM, MgCl2 10 mM, pH 8.0
Conditions: both partners purified

binding result: binds
B1: GST-TRIM21, recombinant full-length (natural protein, human, UniProt P19474 1-475, looked up)
chain: MASAARLTMMWEEVTCPICLDPFVEPVSIECGHSFCQECISQVGKGGGSVCPVCRQRFLLKNLRPNRQLANMVNNLKEISQEAREGTQGERCAVHGERLHLFCEKDGKALCWVCAQSRKHRDHAMVPLEEAAQEYQEKLQVALGELRRKQELAEKLEVEIAIKRADWKKTVETQKSRIHAEFVQQKNFLVEEEQRQLQELEKDEREQLRILGEKEAKLAQQSQALQELISELDRRCHSSALELLQEVIIVLERSESWNLKDLDITSPELRSVCHVPGLKKMLRTCAVHITLDPDTANPWLILSEDRRQVRLGDTQQSIPGNEERFDSYPMVLGAQHFHSGKHYWEVDVTGKEAWDLGVCRDSVRRKGHFLLSSKSGFWTIWLWNKQKYEAGTYPQTPLHLQVPPCQVGIFLDYEAGMVSFYNITDHGSLIYSFSECAFTGPLRPFFSPGFNDGGKNTAPLTLCPLNIGSQGSTDY
notes: TRIM21, human, cDNA expressing full-length TRIM21 cloned into pEXG-4T-1 (so in the source); GST kept in the GST pull-down (held on GST resin); the methods also describe removal of tags with TEV or thrombin; also called GST-tagged TRIM21; recombinant TRIM21; source: E. coli BL21(DE3), purified (GST-tag Purification Resin)
